Results: paper PMC6522981, “Structure-based design generated novel hydroxamic acid based preferential HDAC6 lead inhibitor with on-target cytotoxic activity against primary choroid plexus carcinoma” (Journal of Enzyme Inhibition and Medicinal Chemistry, 2019)

Biological target: T1, human HDAC8 (Homo sapiens, UniProt Q9BY41)
T1 construct: purchased BPS Bioscience 50008
T1 sequence (Q9BY41 1-377): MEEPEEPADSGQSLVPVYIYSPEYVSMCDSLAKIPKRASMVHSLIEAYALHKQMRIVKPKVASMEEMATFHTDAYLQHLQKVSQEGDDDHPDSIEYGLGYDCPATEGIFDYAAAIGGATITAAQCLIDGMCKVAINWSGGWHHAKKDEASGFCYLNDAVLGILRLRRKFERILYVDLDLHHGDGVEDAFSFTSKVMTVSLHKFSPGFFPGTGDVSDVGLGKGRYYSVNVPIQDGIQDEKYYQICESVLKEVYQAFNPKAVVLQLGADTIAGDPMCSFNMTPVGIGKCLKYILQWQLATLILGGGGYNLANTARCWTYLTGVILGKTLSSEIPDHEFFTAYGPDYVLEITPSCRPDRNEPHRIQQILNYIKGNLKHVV
Test: HDAC8 inhibitor enzymatic assay, % inhibition at fixed concentration
Assay type: biochemical
Details: read-out: % Inhibition HDAC8

CC(=C/C(C)C(=O)c1ccc(N(C)C)cc1)/C=C/C(=O)NO (stereo not shown) [TSA, Trichostatin A, reference compound]
inhibition at 100 µM: 97%
